Data on one compound can be found in patent US5116971A, “Substituted-1,4-diazepines” (Boehringer Ingelheim KG, priority 1986, dated 1992).

pIC50: −log10 of the molar value. Where two headings read alike, the source gives them in different places.

The subject of this test is human platelets (aggregation induced by PAF). Description: inhibition of PAF-induced blood platelet aggregation in vitro. It is filed as cell-based. The conditions noted are these: human PRP, PAF 5×10^-8 M, read-out: IC50 (concentration for 50% inhibition of aggregation). The protocol:
To determine the PAF-antagonistic action of substances, use was made of the aggregation of human platelets induced in vitro by PAF. To obtain platelet-rich plasma (PRP), blood is taken from an uncompressed vein using a plastic syringe containing 3.8% strength sodium citrate solution. The ratio between sodium citrate solution and blood is 1:9. After careful mixing, the citrated blood is centrifuged at 150×g (1200 rpm) for 20 minutes. The platelet aggregation is measured by the method worked out by Born and Cross (G. V. R. Born and M. J. Cross, J. Physiol. 168, 178 (1963)), with PAF being added to the continuously stirred PRP to initiate the aggregation. The test substance is added in a volume of 10 ul in each case 2-3 minutes before initiation of the aggregation. The solvents used are either distilled water, ethanol and/or dimethyl sulphoxide. Blanks contain corresponding volumes of these solvents. After the initial absorption has been recorded (2-3 minutes), aggregation is induced with PAF (5×10^-8 M). To assess the effects of substances, use is made of the maximum of the first aggregation wave. The maximum absorption rate (=maximum aggregation×100%) induced by PAF is, in each case, simultaneously checked in a parallel mixture (=blank in one channel of the two-channel aggregometer) for each test mixture (second channel) and used as the 100% value. […]

`Cc1nnc2n1-c1ccc(Cl)cc1C(c1ccccc1)=NC2` [Alprazolam, alprazolam, reference compound]: the pIC50 is 4.85. For the same compound, the pIC50 (Table A) was 4.85.
